Assay results: patent publication US20210186970A1, “SELECTIVE CALCIUM CHANNEL ANTAGONISTS” (Northwestern University, priority 2011, published 2021)
Read-outs that look alike come from different tables or passages of the source.

Chains of the proteins cited; added tags and fusions are not shown. Residues count along the entry.
UniProt P15381, whole entry: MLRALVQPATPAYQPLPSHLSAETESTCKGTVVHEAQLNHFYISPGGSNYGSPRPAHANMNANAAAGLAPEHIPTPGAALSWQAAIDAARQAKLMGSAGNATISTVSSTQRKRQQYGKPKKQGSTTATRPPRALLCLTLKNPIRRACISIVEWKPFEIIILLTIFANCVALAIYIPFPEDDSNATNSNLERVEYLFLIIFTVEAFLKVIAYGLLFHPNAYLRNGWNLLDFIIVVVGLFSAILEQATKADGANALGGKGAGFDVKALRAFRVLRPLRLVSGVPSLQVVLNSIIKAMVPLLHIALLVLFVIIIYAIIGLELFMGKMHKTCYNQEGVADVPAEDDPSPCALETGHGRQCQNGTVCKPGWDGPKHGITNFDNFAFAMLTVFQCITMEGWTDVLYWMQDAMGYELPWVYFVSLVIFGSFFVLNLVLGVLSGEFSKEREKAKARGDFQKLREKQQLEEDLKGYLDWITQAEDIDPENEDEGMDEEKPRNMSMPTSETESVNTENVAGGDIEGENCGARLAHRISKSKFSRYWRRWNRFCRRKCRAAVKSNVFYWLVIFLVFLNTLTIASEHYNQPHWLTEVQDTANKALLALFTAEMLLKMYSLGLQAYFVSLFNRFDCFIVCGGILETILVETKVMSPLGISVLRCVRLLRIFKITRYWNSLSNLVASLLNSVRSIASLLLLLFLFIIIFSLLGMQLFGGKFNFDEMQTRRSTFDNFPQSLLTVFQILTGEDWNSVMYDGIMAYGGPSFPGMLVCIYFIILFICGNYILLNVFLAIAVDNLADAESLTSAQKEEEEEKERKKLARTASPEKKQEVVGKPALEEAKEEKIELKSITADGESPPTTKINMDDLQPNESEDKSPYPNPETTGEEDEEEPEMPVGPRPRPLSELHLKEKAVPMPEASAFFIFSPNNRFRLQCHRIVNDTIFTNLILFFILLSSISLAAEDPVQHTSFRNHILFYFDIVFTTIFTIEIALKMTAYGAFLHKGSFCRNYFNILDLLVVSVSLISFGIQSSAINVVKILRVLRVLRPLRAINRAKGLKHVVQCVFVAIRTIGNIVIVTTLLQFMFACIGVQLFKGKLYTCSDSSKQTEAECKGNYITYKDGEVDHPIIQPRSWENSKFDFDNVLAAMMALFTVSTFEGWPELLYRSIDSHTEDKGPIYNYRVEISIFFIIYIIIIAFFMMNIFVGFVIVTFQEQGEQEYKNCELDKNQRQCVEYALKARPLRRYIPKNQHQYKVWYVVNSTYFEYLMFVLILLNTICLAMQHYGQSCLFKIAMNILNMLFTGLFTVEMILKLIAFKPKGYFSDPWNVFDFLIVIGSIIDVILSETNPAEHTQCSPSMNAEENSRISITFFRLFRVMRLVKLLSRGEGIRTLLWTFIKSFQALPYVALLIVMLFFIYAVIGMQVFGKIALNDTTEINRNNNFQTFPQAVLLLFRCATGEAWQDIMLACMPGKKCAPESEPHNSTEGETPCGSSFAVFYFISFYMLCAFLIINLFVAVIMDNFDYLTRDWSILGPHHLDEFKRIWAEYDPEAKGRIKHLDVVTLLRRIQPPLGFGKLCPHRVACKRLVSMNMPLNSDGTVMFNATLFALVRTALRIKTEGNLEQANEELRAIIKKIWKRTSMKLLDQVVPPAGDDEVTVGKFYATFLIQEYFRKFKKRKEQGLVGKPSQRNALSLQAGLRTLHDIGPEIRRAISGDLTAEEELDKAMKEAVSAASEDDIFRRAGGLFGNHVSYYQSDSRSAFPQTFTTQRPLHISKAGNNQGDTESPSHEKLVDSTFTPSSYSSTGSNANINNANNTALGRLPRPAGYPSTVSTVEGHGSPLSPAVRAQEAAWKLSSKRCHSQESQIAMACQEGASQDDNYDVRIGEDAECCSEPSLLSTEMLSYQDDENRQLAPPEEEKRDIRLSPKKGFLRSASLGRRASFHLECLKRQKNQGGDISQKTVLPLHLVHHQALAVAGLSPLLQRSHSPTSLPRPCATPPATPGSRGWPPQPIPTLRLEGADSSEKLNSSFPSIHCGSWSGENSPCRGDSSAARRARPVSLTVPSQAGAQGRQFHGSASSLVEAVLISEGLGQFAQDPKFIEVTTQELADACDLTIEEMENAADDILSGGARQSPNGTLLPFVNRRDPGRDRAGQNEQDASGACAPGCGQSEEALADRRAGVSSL
UniProt P27732, whole entry: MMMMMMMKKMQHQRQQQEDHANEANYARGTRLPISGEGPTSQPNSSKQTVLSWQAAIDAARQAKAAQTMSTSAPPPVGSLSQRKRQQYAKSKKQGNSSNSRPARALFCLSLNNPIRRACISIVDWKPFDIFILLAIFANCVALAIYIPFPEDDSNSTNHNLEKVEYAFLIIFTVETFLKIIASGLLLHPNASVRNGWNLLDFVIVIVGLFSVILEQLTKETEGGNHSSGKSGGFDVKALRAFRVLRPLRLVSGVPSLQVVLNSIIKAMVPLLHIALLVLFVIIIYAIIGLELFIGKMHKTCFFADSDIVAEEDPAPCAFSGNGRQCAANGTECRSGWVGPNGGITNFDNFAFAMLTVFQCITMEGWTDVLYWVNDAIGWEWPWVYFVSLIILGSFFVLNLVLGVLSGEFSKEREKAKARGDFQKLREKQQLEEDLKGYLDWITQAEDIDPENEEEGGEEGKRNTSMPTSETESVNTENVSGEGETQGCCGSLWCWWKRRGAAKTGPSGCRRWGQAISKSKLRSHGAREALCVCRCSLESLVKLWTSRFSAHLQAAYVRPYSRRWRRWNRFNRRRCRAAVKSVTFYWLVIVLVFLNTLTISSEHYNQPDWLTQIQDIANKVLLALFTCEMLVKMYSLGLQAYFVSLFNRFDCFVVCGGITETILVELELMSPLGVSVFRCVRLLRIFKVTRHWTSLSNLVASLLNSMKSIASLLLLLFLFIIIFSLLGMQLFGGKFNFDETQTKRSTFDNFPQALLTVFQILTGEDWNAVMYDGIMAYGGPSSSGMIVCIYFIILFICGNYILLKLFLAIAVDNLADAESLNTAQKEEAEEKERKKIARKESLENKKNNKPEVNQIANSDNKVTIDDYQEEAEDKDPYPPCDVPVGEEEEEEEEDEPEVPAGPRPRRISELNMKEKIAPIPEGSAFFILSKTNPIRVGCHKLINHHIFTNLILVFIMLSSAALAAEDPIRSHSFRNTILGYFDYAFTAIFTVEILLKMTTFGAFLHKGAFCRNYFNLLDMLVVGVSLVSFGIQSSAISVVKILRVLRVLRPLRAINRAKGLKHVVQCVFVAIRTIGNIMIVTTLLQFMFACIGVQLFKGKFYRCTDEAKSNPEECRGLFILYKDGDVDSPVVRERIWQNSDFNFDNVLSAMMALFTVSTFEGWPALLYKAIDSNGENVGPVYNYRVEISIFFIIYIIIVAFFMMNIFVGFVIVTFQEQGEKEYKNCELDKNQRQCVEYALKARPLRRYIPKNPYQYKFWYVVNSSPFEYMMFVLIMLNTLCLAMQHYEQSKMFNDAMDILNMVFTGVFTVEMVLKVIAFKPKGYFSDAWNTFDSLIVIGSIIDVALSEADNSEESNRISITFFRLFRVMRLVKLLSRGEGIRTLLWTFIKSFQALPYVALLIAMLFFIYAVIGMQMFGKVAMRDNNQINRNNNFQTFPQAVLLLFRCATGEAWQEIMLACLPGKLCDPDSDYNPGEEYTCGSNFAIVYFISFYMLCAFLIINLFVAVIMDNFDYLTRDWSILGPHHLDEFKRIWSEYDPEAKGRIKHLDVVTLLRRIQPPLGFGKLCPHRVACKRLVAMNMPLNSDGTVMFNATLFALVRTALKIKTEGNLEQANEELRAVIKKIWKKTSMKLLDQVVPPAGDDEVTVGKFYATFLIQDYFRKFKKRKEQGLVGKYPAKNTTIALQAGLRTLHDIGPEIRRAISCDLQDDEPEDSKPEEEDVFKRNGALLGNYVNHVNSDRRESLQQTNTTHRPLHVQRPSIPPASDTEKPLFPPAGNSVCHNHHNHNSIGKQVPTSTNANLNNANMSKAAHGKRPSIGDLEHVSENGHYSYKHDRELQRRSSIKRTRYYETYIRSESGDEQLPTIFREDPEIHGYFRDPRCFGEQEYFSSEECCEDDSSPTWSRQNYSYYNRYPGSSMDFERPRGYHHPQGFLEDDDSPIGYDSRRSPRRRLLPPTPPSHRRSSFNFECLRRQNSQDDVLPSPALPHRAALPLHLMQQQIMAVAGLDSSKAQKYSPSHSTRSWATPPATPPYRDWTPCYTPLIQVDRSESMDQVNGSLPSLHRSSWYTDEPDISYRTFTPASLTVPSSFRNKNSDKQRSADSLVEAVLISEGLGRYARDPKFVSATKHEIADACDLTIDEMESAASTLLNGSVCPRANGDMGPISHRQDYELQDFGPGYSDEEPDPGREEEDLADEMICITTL
UniProt P54284, whole entry partner: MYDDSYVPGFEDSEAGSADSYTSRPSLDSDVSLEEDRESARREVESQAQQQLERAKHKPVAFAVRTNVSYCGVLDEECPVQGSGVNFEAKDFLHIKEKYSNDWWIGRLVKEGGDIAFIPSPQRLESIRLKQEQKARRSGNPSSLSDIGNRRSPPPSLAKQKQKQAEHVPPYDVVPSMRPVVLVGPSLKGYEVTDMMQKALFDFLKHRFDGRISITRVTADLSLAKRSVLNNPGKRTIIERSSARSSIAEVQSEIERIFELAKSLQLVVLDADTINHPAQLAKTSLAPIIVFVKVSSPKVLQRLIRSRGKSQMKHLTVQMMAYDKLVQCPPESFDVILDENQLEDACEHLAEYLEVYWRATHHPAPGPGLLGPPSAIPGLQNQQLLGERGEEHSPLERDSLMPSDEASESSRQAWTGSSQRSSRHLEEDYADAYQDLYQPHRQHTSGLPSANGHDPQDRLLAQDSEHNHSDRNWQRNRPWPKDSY
UniProt P54289, 25-956 partner limits assumed: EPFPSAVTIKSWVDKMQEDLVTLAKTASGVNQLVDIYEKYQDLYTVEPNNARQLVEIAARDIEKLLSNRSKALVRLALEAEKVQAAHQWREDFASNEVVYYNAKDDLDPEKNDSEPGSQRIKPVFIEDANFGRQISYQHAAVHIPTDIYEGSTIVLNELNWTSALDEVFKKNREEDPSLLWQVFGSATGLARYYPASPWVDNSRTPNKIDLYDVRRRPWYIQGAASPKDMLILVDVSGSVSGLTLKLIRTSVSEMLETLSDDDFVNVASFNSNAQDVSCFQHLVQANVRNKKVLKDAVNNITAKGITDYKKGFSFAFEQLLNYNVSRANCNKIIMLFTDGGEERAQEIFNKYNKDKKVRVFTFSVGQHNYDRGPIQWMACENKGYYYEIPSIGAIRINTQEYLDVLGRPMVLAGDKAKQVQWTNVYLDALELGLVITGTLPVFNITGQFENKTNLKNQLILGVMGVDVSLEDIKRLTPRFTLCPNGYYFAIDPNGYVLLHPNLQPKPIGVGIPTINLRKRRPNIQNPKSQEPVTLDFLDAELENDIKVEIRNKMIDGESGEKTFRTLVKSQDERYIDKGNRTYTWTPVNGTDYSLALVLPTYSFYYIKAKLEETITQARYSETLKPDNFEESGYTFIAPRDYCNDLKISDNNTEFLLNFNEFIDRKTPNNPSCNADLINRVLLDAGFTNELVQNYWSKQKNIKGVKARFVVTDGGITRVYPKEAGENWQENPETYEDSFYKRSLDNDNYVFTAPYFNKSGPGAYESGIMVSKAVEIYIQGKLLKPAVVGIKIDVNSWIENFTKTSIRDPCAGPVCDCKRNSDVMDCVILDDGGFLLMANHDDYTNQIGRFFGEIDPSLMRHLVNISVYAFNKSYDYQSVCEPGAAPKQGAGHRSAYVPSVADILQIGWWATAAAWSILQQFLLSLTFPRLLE
UniProt P54289, 957-1103 partner limits assumed: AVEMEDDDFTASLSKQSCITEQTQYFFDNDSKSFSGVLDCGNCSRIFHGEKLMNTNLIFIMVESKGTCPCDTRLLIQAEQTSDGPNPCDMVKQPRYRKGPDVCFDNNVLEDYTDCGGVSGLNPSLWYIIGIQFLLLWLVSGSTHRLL

How the values were obtained:
[1] = biological target: Cav1.2 L-type Ca channels (Oryctolagus cuniculus, UniProt P15381)
[2] = biological target: Cav1.3 L-type Ca channels (Rattus norvegicus, UniProt P27732); experiment: FLIPR Fluo-8 calcium assay, Cav1.3 channel inhibition in HEK293 cells; format: cell-based
[3] = read-out: IC50 (μM) Cav1.3, second library, FLIPR, HEK293, value (±SD)

Compound	IC50 [1]	IC50 [2, 3]	IC50 ([2]; read-out: IC50 (μM) Cav1.3, third library, FLIPR, HEK293, value (±SD))	selectivity for Cav1.3 over Cav1.2 ([2]; ratio of IC50 values for the two cell lines)	IC50 ([2]; read-out: IC50 with Cav1.3)
O=C1CC(=O)N(C2CCCCC2)C(=O)N1CCc1cccs1	37.2 µM	11.4 µM			
CC(CN1C(=O)CC(=O)N(C2CCCCC2)C1=O)c1ccc(Cl)cc1 (stereo not drawn)	52.9 µM	1.5 µM			
O=C1CC(=O)N(C2CCCCC2)C(=O)N1CCc1ccc([N+](=O)[O-])cc1	10.5 µM	8.9 µM			
O=C1CC(=O)N([C@@H]2C[C@H]3CC[C@@H]2C3)C(=O)N1CCc1ccc(Cl)cc1 (relative stereo)	10.9 µM		2.8 µM		
COc1ccc(CCN2C(=O)CC(=O)N(C3CCCCC3)C2=O)cc1	26.2 µM	9.4 µM			
COc1ccc(CCN2C(=O)CC(=O)N(C3CCCCC3)C2=O)cc1OC	75.5 µM	32.5 µM			
O=C1CC(=O)N(C2CCCCC2)C(=O)N1CCc1ccc(Cl)cc1Cl	40.3 µM	1.5 µM			
O=C1NCC(CCc2cccc(Cl)c2)C(=O)N1C1CCCCC1 (stereo not drawn)				4 fold	0.15 µM
CC(Cc1ccc(Cl)cc1)N1C(=O)CC(=O)N(C2CCCCC2)C1=O (stereo not drawn)	16.8 µM	2.1 µM			
